The target in this assay is Collagenase 3 (Homo sapiens, UniProt P45452). The experiment in a line: Inhibitory concentration against MMP-13.

What is called IC50 is the midpoint of a concentration-inhibition curve. High values mean weaker potency in that assay, low ones greater potency in that assay. As to `CC(C)[C@H](NS(=O)(=O)c1ccc(-c2ccc(NC(=O)c3cc4ccccc4o3)cc2)cc1)C(=O)O`, the IC50 was 2.4 nM.

`CC(C)[C@@H](NS(=O)(=O)c1ccc(-c2ccc(NC(=O)c3cc4ccccc4o3)cc2)cc1)C(=O)O`: the IC50 was found to be 2.6 nM.

(Values after ChEMBL document CHEMBL1143494, “Synthesis and SAR of highly selective MMP-13 inhibitors” (Bioorg Med Chem Lett, 2005).)
